Experimental data as given in patent US9353081B2, “Bicyclic dihydroquinoline-2-one derivatives” (Hoffmann-La Roche Inc., priority 2011, dated 2016).

Protein sequences, listed by entry. Tags and fused reporters are not part of them. Residues count along the entry.
UniProt P19099, 25-503: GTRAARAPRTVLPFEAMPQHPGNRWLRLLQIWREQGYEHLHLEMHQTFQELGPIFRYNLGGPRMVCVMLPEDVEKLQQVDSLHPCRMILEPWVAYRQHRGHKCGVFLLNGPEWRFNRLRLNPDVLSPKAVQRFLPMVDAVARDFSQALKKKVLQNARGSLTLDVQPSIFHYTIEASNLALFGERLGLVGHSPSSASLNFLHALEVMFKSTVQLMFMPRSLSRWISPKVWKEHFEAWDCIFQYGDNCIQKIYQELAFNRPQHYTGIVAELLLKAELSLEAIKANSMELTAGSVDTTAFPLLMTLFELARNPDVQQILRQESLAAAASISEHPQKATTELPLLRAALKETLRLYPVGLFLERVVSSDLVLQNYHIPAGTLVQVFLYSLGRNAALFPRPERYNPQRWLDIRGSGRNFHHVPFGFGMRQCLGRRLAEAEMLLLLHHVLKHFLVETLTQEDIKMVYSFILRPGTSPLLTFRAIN
UniProt P15538, 25-503: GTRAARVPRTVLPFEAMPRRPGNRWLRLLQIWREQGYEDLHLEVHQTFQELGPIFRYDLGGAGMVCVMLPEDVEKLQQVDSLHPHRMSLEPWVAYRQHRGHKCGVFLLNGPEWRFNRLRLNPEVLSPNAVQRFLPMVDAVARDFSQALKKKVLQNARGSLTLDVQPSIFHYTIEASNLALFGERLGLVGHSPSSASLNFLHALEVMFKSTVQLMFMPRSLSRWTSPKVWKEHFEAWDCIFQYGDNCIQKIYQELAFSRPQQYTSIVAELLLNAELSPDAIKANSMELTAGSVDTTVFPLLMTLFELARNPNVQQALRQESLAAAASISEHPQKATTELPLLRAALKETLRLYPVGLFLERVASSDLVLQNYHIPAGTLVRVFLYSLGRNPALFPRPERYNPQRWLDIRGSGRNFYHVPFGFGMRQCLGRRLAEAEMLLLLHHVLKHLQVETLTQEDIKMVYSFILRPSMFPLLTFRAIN

Tests used:
[1] = target: human CYP11B2 (Homo sapiens (Human), UniProt P19099); experiment: G-402 cellular enzyme assay, human CYP11B2 (aldosterone release, HTRF); type: cell-based; conditions: G-402 cells expressing human CYP11B2; 1 μM Deoxycorticosterone
Text: (§1) Specifically we developed stable G-402 cells expressing ectopically human CYP11B1, human CYP11B2, human CYP11A1, cynomolgus CYP11B1 or cynomolgus CYP11B2 enzyme activity.
(§2) The expression plasmids contains the ORF for either human/cyno CYP11B1 or CYP11B2 under the control of a suitable promoter (CMV-promoter) and a suitable resistance marker (neomycin). Using standard techniques the expression plasmid is transfected into G-402 cells and these cells are then selected for expressing the given resistance markers. Individual cell-clones are then selected and assessed for displaying the desired enzymatic activity using 11-Deoxycorticosterone (Cyp11B2) or 11-Deoxycortisol (Cyp11B1) as a substrate.
(§3) For assaying enzymatic activity, cells were plated onto 96 well plates and incubated for 16 h. An aliquot of the supernatant is then transferred and analyzed for the concentration of the expected product (Aldosterone for CYP11B2; Cortisol for CYP11B1). The concentrations of these steroids can be determined using HTRF assays from CisBio analyzing either Aldosterone or Cortisol.
(§4) Inhibition of the release of produced steroids can be used as a measure of the respective enzyme inhibition by test compounds added during the cellular enzyme assay. […]
(§5) [formula] wherein, A is the maximum y value, B is the EC50 factor determined using XLFit, C is the minimum y value and D is the slope value. […]

[2] = target: human CYP11B1 (Homo sapiens (Human), UniProt P15538); experiment: G-402 cellular enzyme assay, human CYP11B1 (cortisol release, HTRF); type: cell-based; conditions: G-402 cells expressing human CYP11B1; 1 μM Deoxycortisol
Text: as §1, §2, §3, §4, §5

| Compound | EC50 [1] [nM] | EC50 [2] [nM] |
| --- | --- | --- |
| CCC(=O)N[C@H]1c2cncc(-c3cc4c(cc3F)N(C)C(=O)CC4)c2CC[C@@H]1C (single isomer, unassigned) [Example 45, (+)-N-[(7S,8R or 7R,8S)-4-(7-Fluoro-1-methyl-2-oxo-1,2,3,4-tetrahydro-quinolin-6-yl)-7-methyl-5,6,7,8-tetrahydro-isoquinolin-8-yl]-propionamide] | 54.9 | 2620 |
| (−)-N-[(7R,8S or 7S,8R)-4-(7-Fluoro-1-methyl-2-oxo-1,2,3,4-tetrahydro-quinolin-6-yl)-7-methyl-5,6,7,8-tetrahydro-isoquinolin-8-yl]-propionamide [Example 44] | 529 | 2050 |
